This passage reports deltaG, deltaH and Kd results from ChEMBL document CHEMBL5038666, “Discovery of DNA-Targeting HDAC Inhibitors with Potent Antitumor Efficacy In Vivo That Trigger Antitumor Immunity” (J Med Chem, 2022).

Test [1] has as its system Calf thymus DNA. As to conditions: Bos taurus; dose 500.0 µM.
For test [2], the system named is Calf thymus DNA. Particulars: Bos taurus; dose 500.0 µM. The source holds these as a separate data set.
For test [3], the system named is Calf thymus DNA. The experiment in a line: Binding affinity to calf thymus DNA assessed as dissociation constant at 500 microM by isothermal titration calorimetric analysis. The format is nucleic-acid assay, Bos taurus.

In general, pKd refers to the negative decadic logarithm of the Kd, by convention in mol/L.

pKd: −log10 of the molar value.

Consider `O=C(CCCCCCOc1cccc(-c2nc3ccccc3[nH]2)c1)NO`, for which the deltaG in the test with Calf thymus DNA [1] is -5.95 kcal/mol. Further, in the test with Calf thymus DNA [2], the deltaH was -80 kcal/mol. The pKd in the test with Calf thymus DNA [3] was 4.36.
In the test with Calf thymus DNA [1], `O=C(CCCCCCOc1ccc(-c2nc3ccc(-c4nc5ccccc5[nH]4)cc3[nH]2)cc1)NO` gave a deltaG of -6.15 kcal/mol. The deltaH with Calf thymus DNA [2] is -51.4 kcal/mol. Moreover, the pKd in the test with Calf thymus DNA [3] was 4.50.
